Patent publication US20220287970A1, “COMPOSITION FOR INHIBITING SAPONIN-INDUCED HEMOLYSIS, CONTAINING CATIONIC LIPOSOME” (priority 2020, published 2022)

System: red blood cells (RBCs)
Experiment: Hemolysis analysis: steroidal and triterpenoid saponins (Example 5)
Assay type: cell-based
Settings: saponin alone
Description: 1) The liposome, saponin, sucrose in a HEPES buffer (pH 7.4), and distilled water were placed in a 96-well plate, as shown in Tables 14 and 15 below.
2) The reaction was carried out at room temperature and 300 rpm for 30 minutes using an orbital shaker.
3) 3 mL of RBCs were suspended in 10 mL of PBS and centrifuged at room temperature and 1500 rpm for 5 minutes, after which the supernatant was removed.
4) Steps 2) and 3) were repeated three times, and thus the RBCs were washed.
5) The RBC pellet was suspended in 1 mL of PBS and diluted to 1/100, followed by cell counting.
6) The RBCs were diluted to 1.5×10^9 cells/mL using PBS and dispensed at 3×10^7 cells/20 μL/well in a 96-well plate treated with the test material of 2) above.
7) The reaction was carried out at room temperature and 300 rpm for 1 hour using an orbital shaker.
8) The 96-well plate was centrifuged at room temperature and 1500 rpm for 5 minutes.
9) 50 μL of the supernatant was transferred to a new 96-well plate, and the absorbance was then measured at 415 nm.
10) Hemolysis (%) was calculated using the following equation.
Hemolysis (%)=(OD of sample OD of 0% hemolysis)/(0D of 100% hemolysis−OD of 0% hemolysis)×100

Question: aescin was tested. Which “amount of saponin at which 60% hemolysis was observed” value did it give?
Answer: 2.5 µg

Question: What about the “amount of saponin at which 100% hemolysis was observed” value of the same substance?
Answer: 5 µg
